# AlphaSeq binding of Ab-14 light chain variants to a spike HR2 peptide

Reference: Li et al. 2023, doi:10.1038/s41467-023-39022-2. File: FLAb, binding data.

All variants were tested on one target, the spike HR2 peptide PDVDLGDISGINAS (SARS-CoV-2).

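The parent was found by panning a naive human phage display library on the peptide. These sequences belong to a second round, designed from the earlier measurements on random variants of the parent. Group labels follow the data file (Ctrl: baseline library sampled from a position-specific scoring matrix, with some repeated check sequences; GP: Gaussian process model; Gen: genetic algorithm; a sequence that several methods proposed may carry one label only). In AlphaSeq, yeast of one mating type display the scFv and yeast of the other type display the target. Mating (16 h, 30 °C) was followed by selection of diploids and sequencing of their barcodes. Read counts were normalised to the haploid input and turned into Kd by a linear fit to BCL2-family pairs of known affinity, for each replicate. There are six technical replicates.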

Ab-14 is the parent antibody, in scFv form: VH, then the linker GGGGSGGGGSGGGGS, then VL. The heavy chain is unchanged in all variants.
VH: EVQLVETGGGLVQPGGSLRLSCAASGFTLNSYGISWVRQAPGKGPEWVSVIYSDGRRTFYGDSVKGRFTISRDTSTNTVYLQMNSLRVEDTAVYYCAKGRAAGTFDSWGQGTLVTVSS
VL: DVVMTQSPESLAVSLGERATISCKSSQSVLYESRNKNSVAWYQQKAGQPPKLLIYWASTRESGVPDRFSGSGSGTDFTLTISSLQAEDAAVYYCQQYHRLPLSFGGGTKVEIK

Positions count from residue 1 of the parent VL; R34F puts F in place of R.
Scale: log10 of Kd in nM, estimated from mating counts; low values are strong binders.
Where no diploid with the target was found in that replicate, the entry reads "nd": below detection, most likely a poor binder, though not proof of it.
Background: pairings of all light chain designs with three empty control strains gave a value in 4% of cases (median 2.64, 5th percentile 1.59). Values in that range, when seen in few replicates, are hard to tell from nonspecific mating. Also given: how often the same scFv was detected with the empty control strains, with their mean in brackets.

changes | group | replicates, log10 nM | signal with controls
R34F/N37K | Ctrl | nd / 1.86 / nd / 1.84 / 3.75 / nd | 0/18
L30P/S33T | Ctrl | 1.68 / 3.41 / 1.85 / 1.88 / 2.70 / 2.80 | 0/18
H98I | Ctrl | nd / nd / nd / nd / nd / nd | 0/18
W56Q/Q96L | Ctrl | 1.69 / 1.16 / 1.06 / 1.24 / 1.58 / 0.99 | 2/18 (2.41)
K36Q/S38A/W56N/S103M | Ctrl | 0.87 / 0.20 / 0.73 / 0.59 / 0.37 / 0.65 | 0/18
S26W/Q27N/V29C/L30E/Y31D/S33F/K36S/H98G | Ctrl | nd / nd / nd / nd / nd / nd | 0/18
S26T/R34L/R60K | Ctrl | nd / nd / nd / nd / 3.04 / 2.20 | 2/18 (2.95)
S25Q/Q27E/K36S | Ctrl | 1.03 / 1.15 / 1.37 / 1.60 / 1.29 / 1.62 | 1/18 (3.54)
V29K/R34M/W56N/S62M | Ctrl | 0.10 / -0.12 / 0.02 / -0.65 / -0.17 / -0.28 | 0/18
R34D/H98N | Ctrl | 1.43 / 1.08 / 0.55 / 0.68 / 1.08 / 1.32 | 0/18
N35F/W56S | Ctrl | 0.94 / 1.32 / 1.44 / 0.96 / 1.08 / 1.22 | 2/18 (2.79)
Q27G/R34L/Q96H | Ctrl | nd / nd / nd / nd / 2.65 / nd | 0/18
S25I/R34C/W56G/E61L | Ctrl | 0.49 / 0.54 / 0.38 / 0.43 / 0.47 / 0.49 | 1/18 (3.14)
R34L/W56Q/E61T | Ctrl | 1.14 / 0.77 / 0.88 / 0.93 / 0.91 / 0.97 | 2/18 (2.20)
Q27E/L30D/H98V/S103L | Ctrl | nd / nd / nd / nd / 1.62 / nd | 0/18
S25L/T59K | Ctrl | nd / 0.91 / 0.92 / 0.76 / 1.82 / 0.71 | 0/18
V29D/W56E | Ctrl+GP_Gen | 0.11 / -0.16 / -0.20 / -0.36 / -0.12 / -0.04; 0.05 / 0.01 / -0.18 / -0.03 / -0.25 / 0.04 | 0/36
S28G/Y31F/S38I/W56K/T59K/S62Y/Q95G/H98W | Ctrl | nd / nd / nd / nd / nd / nd | 0/18
S28F/V29D/L30M/R34T/Q96E | Ctrl | nd / nd / nd / nd / nd / 2.25 | 2/18 (1.02)
V29K/E32Q/R34H | Ctrl | 1.22 / 0.27 / 0.87 / 1.38 / 1.27 / 1.06 | 0/18
Q27G/S38N/W56M | Ctrl | 0.93 / 0.97 / 1.01 / 1.41 / 1.60 / 1.75 | 0/18
K24E/K36T/W56G/S103Q | Ctrl | 0.57 / 1.03 / 0.60 / 0.31 / 1.11 / 0.80 | 0/18
K24R/V29S/W56A/S62E/H98R | Ctrl | 0.15 / 0.03 / -0.07 / -0.12 / 0.07 / 0.01 | 3/18 (3.71)
S25I/Q27F/R34L/S62P/S103Y | Ctrl | 0.59 / 2.21 / nd / nd / nd / 1.92 | 0/18
S25H/W56A/S58L/E61H/H98C | Ctrl | nd / nd / nd / nd / nd / nd | 0/18
S26C/R34H/W56S | Ctrl | 0.40 / 0.48 / 0.72 / 0.33 / 0.47 / 0.66 | 0/18
R34N/W56N/Y97C/L100W | Ctrl | nd / nd / nd / nd / nd / nd | 0/18
S33T | Ctrl | 0.97 / nd / nd / 2.41 / 1.21 / nd | 0/18
L30R/Y31R/N35E/S38D | Ctrl | 3.21 / nd / nd / nd / 3.31 / nd | 0/18
S28A/S38N/S58V | Ctrl | 2.34 / nd / 2.11 / nd / 1.32 / 4.20 | 1/18 (2.28)
L30Y/R34V/N35D/R99G | Ctrl | 2.28 / 3.32 / 1.79 / 2.48 / 2.32 / 2.16 | 3/18 (3.32)

Top 3 of the variants detected in all replicates, tightest first:

{"changes": "V29K/R34M/W56N/S62M", "group": "Ctrl", "replicates, log10 nM": "0.10 / -0.12 / 0.02 / -0.65 / -0.17 / -0.28", "signal with controls": "0/18"}
{"changes": "V29D/W56E", "group": "Ctrl+GP_Gen", "replicates, log10 nM": "0.11 / -0.16 / -0.20 / -0.36 / -0.12 / -0.04; 0.05 / 0.01 / -0.18 / -0.03 / -0.25 / 0.04", "signal with controls": "0/36"}
{"changes": "K24R/V29S/W56A/S62E/H98R", "group": "Ctrl", "replicates, log10 nM": "0.15 / 0.03 / -0.07 / -0.12 / 0.07 / 0.01", "signal with controls": "3/18 (3.71)"}

Of ten entries with the parent sequence, four were seen in most replicates (averages 0.34 to 2.37), three in one and three in none, so single entries are noisy.
Values of this round are not directly comparable with the first-round values of the same sequences.
In the paper, a design with two or fewer of six values counts as a poor binder.
Where one sequence has several entries in the source, the replicates are listed entry by entry, parted by semicolons.